The experiment concerns patient with chronic viral hepatitis C. To be noted: 6 mg/kg oral daily for 12 months, with subcutaneous interferon alpha-2b 3 MU three times a week for six months.

On to `NS(=O)(=O)c1ccc(-n2nc(C(F)(F)F)cc2-c2ccc(Cl)cc2)cc1` [4-[5-(4-Chlorophenyl)-3-(trifluoromethyl)-1H-pyrazol-1-yl]benzenesulfonamide], for which the liver enzymes entry was “sustained normalization of liver enzymes”.

Source of the values: patent US7041694B1, “Cyclooxygenase-2 inhibition” (Cornell Research Foundation, Inc., priority 1997, dated 2006).
